Laboratory results reported in PMC4357715, “The beta hairpin structure within ribosomal protein S5 mediates interplay between domains II and IV and regulates HCV IRES function” (Nucleic Acids Research, 2015).

System: HCV 3′ UTR
Assay: Direct UV cross-linking of HCV 3′ UTR with recombinant protein
Format: binding, Hepatitis C Virus
Conditions: rRPS5 2 and 4 pmol / 4 and 8 pmol
Experimental: UV cross-linking assay was performed as reported earlier ([17]). In UV cross linking assay α-^32P-labelled HCV IRES RNA (18–383) or HCV 3′ UTR was allowed to form complex with the purified recombinant ribosomal protein S5 (rRPS5) or purified 40S ribosome subunit in binding buffer (5 mM HEPES pH 7.6, 25 mM KCl, 2 mM MgCl2, 3.8% glycerol, 2 mM dithiothreitol, 0.1 mM EDTA) at 30°C for 15 min. These RNA–protein complexes were then irradiated with UV light (254 nm) for 25 min on ice. The excess RNA was digested with RNase A (Sigma) for 30 min at 37°C and UV cross-linked complex was resolved on SDS-polyacrylamide gel, which was dried before it was exposed to the phosphor-Imager cassette. In case of competition UV cross-linking experiments, RNA–protein complex formation was performed in presence of the un-labelled RNAs or peptides.
Human ribosomal protein S5 was expressed in BL21 DE3 and purified as mentioned earlier ([17]). In brief, Escherichia coli BL21 DE3 cells were transformed with the plasmid pET-28(a)-WTRPS5 or pET-28(a)RPS5-βhpt expressing the N terminally poly(His)‐tagged wild type or mutant human RPS5 protein. Protein expression was induced by 0.4 mM Isopropyl β-D-1-thiogalactopyranoside (IPTG) and incubated at 16°C for 22 h. […]

B1: La protein: recombinant La protein, positive control (protein, UniProt P05455 1-408, looked up)
Lupus La protein: MAENGDNEKMAALEAKICHQIEYYFGDFNLPRDKFLKEQIKLDEGWVPLEIMIKFNRLNRLTTDFNVIVEALSKSKAELMEISEDKTKIRRSPSKPLPEVTDEYKNDVKNRSVYIKGFPTDATLDDIKEWLEDKGQVLNIQMRRTLHKAFKGSIFVVFDSIESAKKFVETPGQKYKETDLLILFKDDYFAKKNEERKQNKVEAKLRAKQEQEAKQKLEEDAEMKSLEEKIGCLLKFSGDLDDQTCREDLHILFSNHGEIKWIDFVRGAKEGIILFKEKAKEALGKAKDANNGNLQLRNKEVTWEVLEGEVEKEALKKIIEDQQESLNKWKSKGRRFKGKGKGNKAAQPGSGKGKVQFQGKKTKFASDDEHDEHDENGATGPVKRAREETDKEEPASKQQKTENGAGDQ
  binding of recombinant protein to HCV 3′ UTR: able to bind to HCV 3′ UTR
